Literature values in US12037329B2, “SphK inhibitors and methods of making and using same” (Washington University, priority 2021, dated 2024).

By UniProt entry, the sequences of proteins in these tests, tags left out. Where a name states a change or a piece, a line headed by the entry shows the natural chain unless it says otherwise.
UniProt Q9NYA1, whole entry: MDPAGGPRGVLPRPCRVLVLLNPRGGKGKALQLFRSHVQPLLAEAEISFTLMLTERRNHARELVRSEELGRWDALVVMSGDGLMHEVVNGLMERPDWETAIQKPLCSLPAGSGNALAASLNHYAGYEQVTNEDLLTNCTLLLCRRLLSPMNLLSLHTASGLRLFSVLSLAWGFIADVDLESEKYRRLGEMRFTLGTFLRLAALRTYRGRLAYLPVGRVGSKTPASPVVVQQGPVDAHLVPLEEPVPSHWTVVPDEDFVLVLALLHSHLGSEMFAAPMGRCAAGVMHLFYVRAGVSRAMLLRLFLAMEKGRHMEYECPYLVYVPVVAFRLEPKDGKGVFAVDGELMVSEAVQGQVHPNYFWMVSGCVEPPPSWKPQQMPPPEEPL
UniProt Q9NRA0: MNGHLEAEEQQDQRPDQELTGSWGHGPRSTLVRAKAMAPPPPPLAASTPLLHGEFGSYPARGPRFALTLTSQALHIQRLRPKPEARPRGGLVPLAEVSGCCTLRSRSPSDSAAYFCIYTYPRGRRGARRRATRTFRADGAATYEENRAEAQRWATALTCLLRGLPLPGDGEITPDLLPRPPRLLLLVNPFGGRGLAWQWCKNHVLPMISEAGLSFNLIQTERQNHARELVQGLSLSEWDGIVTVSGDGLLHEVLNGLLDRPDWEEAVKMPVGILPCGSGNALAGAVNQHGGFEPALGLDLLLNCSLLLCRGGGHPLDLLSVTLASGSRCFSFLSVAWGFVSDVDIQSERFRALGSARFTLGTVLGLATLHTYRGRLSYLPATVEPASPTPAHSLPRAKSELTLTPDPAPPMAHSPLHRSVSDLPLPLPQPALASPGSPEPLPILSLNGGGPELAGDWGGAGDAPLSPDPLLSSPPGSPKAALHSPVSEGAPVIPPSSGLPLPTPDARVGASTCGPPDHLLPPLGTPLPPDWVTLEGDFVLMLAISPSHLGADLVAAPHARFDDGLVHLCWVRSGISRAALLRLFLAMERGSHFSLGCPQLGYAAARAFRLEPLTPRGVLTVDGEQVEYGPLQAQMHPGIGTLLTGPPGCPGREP

How the values were obtained:
SphK1 = SphK1 (Homo sapiens (Human), UniProt Q9NYA1); settings: cited from earlier work
SphK2 = SphK2 (Homo sapiens (Human), UniProt Q9NRA0); settings: cited from earlier work

For ABC294640 [Compound 7], the IC50 (SphK1) is given as no more than 100 µM and the IC50 (SphK2) is given as 60 µM.
